Biological target: D(2) dopamine receptor (Rattus norvegicus, UniProt P61169)

Protein sequences, listed by entry. Tags and fused reporters are not part of them.
UniProt P61169, whole entry: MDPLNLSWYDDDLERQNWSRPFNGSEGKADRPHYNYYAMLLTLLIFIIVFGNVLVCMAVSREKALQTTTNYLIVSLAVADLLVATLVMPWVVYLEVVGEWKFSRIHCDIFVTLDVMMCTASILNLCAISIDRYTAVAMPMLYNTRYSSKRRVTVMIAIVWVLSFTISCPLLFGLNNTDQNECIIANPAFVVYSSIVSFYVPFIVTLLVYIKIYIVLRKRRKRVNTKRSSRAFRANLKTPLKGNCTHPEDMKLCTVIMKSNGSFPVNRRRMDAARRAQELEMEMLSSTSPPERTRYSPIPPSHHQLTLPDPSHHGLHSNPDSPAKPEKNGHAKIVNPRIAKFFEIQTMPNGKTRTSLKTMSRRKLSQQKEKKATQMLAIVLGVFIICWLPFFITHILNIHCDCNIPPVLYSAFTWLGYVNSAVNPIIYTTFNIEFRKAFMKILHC

Structure (SMILES): Cc1ccccc1C1CN(C)CCc2c1cc(O)c(O)c2Cl (stereo unspecified) [NSC_0]
- Ki: 0.226 µM

Reference: BindingDB's records for doi:10.1016/s0014-2999(03)02008-9 (Harvard University, 2003)
